# Source: article PMC10958470 (Virus Research, 2024)
# Molecular target: SARS-CoV-2 helicase (nsp13) (Severe acute respiratory syndrome coronavirus 2, UniProt P0DTD1)
# Assay: biochemical
# Format: biochemical
Compound,Helicase Inhibition [%] 20 µM (PS Inhibition Helicase [%]) [%],inhibition at 20 µM (read-out: Helicase Inhibition [%] 20 µM (PS Inhibition Helicase [%])) [%]
CC1(C)C(/C=C/C=C/C=C/C=C2\N(CCCCS(=O)(=O)O)c3ccc4ccccc4c3C2(C)C)=[N+](CCCCS(=O)(=O)[O-])c2ccc3ccccc3c21 [cardiogreen],100.64,
Cc1c(Cl)c(C)[n+]([O-])c(Cl)c1-c1noc(-c2cc(O)c(O)c([N+](=O)[O-])c2)n1 [opicapone],,93.6
